Values of other authors in PMC10005301, “Prediction of the n-Octanol/Water Partition Coefficients of Basic Compounds Using Multi-Parameter QSRR Models Based on IS-RPLC Retention Behavior in a Wide pH Range” (Molecules, 2023).

Parameters: method as in UFZ-LSER database
Conditions: hydrogen bonding parameter B; ref UFZ-LSER database; cited from earlier work

Cc1cccc(N)n1 [2-Amino-6-methylpyridine]
B: 0.93
